# Biological target: PI3Kβ (Homo sapiens (Human), UniProt P42338)
# The chains behind the UniProt entries cited, without tags or fusion partners. Where a name states a change or a piece, a line headed by the entry shows the natural chain unless it says otherwise.
# UniProt P42338: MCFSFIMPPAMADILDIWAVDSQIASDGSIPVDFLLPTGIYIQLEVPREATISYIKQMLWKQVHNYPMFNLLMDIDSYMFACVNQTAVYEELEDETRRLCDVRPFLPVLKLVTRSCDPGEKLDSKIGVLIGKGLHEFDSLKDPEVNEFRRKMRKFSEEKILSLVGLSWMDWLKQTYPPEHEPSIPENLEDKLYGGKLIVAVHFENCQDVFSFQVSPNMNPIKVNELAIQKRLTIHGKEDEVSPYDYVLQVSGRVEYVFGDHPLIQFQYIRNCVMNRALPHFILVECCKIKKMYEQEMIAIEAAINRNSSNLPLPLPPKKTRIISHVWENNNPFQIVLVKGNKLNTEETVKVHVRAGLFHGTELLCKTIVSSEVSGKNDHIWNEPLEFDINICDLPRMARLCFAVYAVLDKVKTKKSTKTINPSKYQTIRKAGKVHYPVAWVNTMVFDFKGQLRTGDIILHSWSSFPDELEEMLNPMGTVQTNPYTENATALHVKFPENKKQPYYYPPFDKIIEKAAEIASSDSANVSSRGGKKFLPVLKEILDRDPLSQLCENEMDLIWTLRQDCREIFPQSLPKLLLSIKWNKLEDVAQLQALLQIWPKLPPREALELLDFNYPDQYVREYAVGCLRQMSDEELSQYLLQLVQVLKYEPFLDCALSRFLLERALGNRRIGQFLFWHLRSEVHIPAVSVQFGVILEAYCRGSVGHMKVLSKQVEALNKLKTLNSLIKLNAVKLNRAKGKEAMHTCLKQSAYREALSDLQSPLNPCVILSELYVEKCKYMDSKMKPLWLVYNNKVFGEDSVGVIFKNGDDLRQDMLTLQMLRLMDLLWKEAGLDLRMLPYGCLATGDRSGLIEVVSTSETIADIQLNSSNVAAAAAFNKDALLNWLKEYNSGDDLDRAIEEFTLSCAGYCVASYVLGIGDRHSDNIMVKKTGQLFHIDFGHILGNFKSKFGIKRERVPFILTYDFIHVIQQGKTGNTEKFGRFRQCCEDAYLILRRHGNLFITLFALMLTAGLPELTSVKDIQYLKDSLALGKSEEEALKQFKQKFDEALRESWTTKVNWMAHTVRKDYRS
# Test: TR-FRET enzymatic activity assay, PI3Kβ
# Format: biochemical
# Details: 2× Km ATP, 2 μM PIP2, 30 minutes at 25° C., read-out: IC50-PIP-Beta
# Protocol: The compounds of formula (I) were characterized for their enzymatic activity against the PI3K isoforms. The activities were measured using a time-resolved fluorescence resonance energy transfer (TR-FRET) assay. TR-FRET monitored the formation of 3,4,5-inositol triphosphate molecule that competed with fluorescently labeled PIPS for binding to the GRP-1 pleckstrin homology domain protein.
# Class I PI3K isoforms were expressed and purified as heterodimeric recombinant proteins. All assay reagents and buffers for the TR-FRET assay were purchased from Millipore. […] The compounds were added to the assay solution and incubated for 30 minutes at 25° C.
smiles,measurement,value
"CCCc1nc2c(C(N)=O)cc(-c3ccnc(N)c3F)cc2n1-c1ccnc2c(F)ccc(F)c12 [Example 24, 6-(2-aminopyridin-4-yl)-1-(5,8-difluoroquinolin-4-yl)-2-methylbenzimidazole-4-carboxamide]",IC50,22 nM

# From US10227350B2 (Gilead Sciences, Inc., priority 2016, dated 2019)
